Molecular target: Mitogen-activated protein kinase 9 (Homo sapiens, UniProt P45984)
Assay: Inhibition of JNK2

Amino acid sequences for entries named in this document (tags omitted). A change or cut given only in a name is not applied to a line headed by its entry.
UniProt P45984: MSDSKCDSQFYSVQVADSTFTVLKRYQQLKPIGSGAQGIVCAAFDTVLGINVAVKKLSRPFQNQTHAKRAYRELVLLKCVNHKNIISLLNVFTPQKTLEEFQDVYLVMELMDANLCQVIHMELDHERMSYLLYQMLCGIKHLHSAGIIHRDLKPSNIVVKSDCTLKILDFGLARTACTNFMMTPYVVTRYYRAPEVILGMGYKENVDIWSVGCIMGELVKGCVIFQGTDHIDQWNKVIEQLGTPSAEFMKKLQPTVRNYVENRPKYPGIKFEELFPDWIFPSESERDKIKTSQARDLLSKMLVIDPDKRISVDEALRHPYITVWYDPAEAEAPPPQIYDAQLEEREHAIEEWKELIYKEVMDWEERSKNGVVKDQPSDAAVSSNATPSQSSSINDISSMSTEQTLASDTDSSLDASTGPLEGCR

SMILES: COC(=O)c1c(-c2ccccc2)c2cc(Br)ccc2c(=O)n1Cc1ccc(S(C)(=O)=O)cc1
- IC50: 30 nM

Source: ChEMBL document CHEMBL1144699 (Bioorg Med Chem, 2008)
